Data on one compound can be found in BindingDB's records for doi:10.1006/jmbi.2000.3966 (Max-Planck-Institut Fuer Biochemie, 2000).

The chains behind the UniProt entries cited, without tags or fusion partners.
UniProt P00750, whole entry: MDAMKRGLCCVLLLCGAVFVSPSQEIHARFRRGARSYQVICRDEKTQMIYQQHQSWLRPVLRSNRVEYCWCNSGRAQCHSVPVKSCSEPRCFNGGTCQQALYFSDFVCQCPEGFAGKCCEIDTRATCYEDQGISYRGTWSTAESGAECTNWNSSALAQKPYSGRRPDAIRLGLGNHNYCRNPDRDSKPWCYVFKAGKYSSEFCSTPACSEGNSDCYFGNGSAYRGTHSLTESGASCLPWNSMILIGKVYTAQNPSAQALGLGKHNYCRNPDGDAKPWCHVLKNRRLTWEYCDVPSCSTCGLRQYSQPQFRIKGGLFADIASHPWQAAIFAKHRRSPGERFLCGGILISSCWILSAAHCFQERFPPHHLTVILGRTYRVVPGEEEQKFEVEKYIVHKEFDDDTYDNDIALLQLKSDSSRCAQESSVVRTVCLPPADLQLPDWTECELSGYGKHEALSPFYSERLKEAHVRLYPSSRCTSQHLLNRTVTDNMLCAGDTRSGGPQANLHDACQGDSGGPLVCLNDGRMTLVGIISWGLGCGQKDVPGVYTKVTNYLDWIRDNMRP

The assay addresses Tissue-type plasminogen activator (Homo sapiens, UniProt P00750). The assay is described as follows: Determination of Inhibition Constants. The settings on record: pH 8; 25 °C. Here is the method: The measurements were carried out on a microplate reader. Two concentrations of the substrate and five concentrations of the inhibitor were used in the assay. […] The Ki-values were calculated according to Dixon using a linear regression program. The Ki-values reported are means from at least three determinations.

Bounds are passed on as bounds.

Compound `N=C(N)c1ccccc1` [Benzamidine] showed a Ki of more than 1000 µM.
